Data on 1 compound can be found in patent publication US20160113905A1, “Polymer composition and polymer material” (INDUSTRIAL TECHNOLOGY RESEARCH INSTITUTE, priority 2012, published 2016).

The chains behind the UniProt entries cited, without tags or fusion partners. Residues count along the entry.
UniProt P14780, 107-707 limits assumed, species assumed: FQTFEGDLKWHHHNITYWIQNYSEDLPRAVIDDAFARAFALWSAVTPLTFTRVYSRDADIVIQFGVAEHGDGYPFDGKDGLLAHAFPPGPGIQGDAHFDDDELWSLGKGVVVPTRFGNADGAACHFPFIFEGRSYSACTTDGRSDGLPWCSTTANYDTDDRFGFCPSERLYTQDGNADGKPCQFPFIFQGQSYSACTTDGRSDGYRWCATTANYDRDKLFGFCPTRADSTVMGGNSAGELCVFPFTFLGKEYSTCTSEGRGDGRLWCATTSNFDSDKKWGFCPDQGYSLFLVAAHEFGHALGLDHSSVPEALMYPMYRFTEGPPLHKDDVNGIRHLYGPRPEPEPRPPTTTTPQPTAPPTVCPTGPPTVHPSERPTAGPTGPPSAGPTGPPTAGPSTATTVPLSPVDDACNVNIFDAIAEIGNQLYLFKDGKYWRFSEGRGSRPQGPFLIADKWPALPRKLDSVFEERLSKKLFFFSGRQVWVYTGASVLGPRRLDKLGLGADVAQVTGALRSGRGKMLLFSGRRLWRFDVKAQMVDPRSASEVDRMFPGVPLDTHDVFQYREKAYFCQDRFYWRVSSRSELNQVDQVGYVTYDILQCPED

This test addresses matrix metalloproteinase-9 (Homo sapiens, UniProt P14780). Description: Inhibition test of matrix metalloproteinase-9 activity (fluorogenic substrate, activated pro-MMP-9). Particulars: Table 5, BocHis sample, concentration not given.

As for `CC(C)(C)OC(=O)N[C@@H](Cc1c[nH]cn1)C(=O)O` [BocHis, Boc-histidine], the “Matrix metalloproteinase-9 inhibitory rate (%)” value was 81.05%.
